Test results reported in US11040981B2, “Pyrrolotriazine compounds and methods of inhibiting TAM kinases” (Syros Pharmaceuticals, Inc., priority 2017, dated 2021).

Amino acid sequences for entries named in this document (tags omitted). Residues count along the entry.
UniProt P36888, 27-993 limits assumed: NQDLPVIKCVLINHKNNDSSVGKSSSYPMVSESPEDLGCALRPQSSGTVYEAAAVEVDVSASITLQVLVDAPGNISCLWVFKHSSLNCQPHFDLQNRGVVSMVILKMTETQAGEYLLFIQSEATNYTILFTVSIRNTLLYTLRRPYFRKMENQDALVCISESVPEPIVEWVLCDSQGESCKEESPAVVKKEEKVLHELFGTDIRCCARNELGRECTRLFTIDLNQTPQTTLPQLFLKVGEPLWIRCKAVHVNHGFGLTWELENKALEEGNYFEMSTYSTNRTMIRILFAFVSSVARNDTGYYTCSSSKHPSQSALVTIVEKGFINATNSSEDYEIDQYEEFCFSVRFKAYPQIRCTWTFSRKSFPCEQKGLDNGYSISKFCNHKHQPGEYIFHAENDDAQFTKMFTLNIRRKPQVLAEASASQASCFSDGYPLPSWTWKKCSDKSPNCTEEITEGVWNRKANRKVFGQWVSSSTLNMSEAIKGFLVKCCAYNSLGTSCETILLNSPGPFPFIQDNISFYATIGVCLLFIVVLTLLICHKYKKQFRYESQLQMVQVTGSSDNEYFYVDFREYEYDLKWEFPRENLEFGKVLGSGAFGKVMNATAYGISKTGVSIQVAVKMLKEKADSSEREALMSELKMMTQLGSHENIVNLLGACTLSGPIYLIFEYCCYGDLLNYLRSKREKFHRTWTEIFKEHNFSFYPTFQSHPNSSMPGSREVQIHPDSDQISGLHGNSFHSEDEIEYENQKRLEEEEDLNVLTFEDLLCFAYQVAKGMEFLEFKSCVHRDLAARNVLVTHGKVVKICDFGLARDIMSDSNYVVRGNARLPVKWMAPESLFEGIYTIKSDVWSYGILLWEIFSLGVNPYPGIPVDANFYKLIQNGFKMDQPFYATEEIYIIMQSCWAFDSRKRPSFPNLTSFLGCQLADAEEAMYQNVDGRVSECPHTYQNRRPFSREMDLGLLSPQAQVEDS
UniProt Q06418, 41-890 limits assumed: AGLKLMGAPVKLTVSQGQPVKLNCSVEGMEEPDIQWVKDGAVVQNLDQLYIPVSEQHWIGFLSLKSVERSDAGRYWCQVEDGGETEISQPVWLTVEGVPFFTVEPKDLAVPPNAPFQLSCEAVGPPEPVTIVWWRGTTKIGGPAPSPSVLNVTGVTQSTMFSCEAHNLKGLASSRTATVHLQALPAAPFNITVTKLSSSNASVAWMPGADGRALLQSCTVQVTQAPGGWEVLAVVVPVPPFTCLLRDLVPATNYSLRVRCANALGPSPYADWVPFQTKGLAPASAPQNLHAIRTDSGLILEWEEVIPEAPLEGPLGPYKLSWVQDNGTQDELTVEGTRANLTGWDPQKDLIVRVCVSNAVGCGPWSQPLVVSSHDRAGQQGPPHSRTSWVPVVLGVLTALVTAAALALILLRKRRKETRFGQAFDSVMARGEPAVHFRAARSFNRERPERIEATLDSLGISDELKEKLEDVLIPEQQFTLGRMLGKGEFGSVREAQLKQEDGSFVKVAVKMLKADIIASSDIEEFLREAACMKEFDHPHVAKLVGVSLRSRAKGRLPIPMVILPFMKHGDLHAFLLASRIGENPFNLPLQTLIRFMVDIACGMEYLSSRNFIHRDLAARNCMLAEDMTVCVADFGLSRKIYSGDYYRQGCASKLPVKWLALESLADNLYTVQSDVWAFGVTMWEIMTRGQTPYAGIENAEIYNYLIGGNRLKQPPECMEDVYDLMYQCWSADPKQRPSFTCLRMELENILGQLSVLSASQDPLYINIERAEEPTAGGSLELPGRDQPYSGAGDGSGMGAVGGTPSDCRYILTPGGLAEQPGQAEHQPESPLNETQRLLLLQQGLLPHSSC
UniProt P30530, 26-894 limits assumed: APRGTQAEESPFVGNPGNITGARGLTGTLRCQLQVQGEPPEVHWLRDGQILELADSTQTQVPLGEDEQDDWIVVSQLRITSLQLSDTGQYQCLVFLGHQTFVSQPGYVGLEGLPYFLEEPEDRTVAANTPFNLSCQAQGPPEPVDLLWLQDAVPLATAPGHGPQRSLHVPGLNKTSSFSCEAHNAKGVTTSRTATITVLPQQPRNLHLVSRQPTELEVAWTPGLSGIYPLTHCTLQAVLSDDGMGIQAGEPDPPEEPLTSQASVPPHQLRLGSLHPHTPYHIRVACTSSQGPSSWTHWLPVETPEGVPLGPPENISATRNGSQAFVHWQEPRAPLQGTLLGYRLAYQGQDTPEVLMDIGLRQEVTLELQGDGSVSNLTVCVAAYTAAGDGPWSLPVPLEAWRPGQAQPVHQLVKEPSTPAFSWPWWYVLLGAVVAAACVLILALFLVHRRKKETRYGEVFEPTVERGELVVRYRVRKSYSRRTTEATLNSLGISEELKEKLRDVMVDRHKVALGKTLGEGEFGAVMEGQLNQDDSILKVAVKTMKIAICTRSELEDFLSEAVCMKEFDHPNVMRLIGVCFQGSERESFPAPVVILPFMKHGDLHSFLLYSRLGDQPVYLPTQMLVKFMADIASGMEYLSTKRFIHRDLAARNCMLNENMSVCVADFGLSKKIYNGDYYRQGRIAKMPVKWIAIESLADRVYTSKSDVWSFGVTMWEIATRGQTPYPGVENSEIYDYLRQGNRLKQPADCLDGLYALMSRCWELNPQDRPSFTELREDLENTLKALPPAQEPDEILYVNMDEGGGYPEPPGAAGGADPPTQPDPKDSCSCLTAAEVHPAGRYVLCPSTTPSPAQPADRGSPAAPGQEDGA
UniProt Q12866, 21-999 limits assumed: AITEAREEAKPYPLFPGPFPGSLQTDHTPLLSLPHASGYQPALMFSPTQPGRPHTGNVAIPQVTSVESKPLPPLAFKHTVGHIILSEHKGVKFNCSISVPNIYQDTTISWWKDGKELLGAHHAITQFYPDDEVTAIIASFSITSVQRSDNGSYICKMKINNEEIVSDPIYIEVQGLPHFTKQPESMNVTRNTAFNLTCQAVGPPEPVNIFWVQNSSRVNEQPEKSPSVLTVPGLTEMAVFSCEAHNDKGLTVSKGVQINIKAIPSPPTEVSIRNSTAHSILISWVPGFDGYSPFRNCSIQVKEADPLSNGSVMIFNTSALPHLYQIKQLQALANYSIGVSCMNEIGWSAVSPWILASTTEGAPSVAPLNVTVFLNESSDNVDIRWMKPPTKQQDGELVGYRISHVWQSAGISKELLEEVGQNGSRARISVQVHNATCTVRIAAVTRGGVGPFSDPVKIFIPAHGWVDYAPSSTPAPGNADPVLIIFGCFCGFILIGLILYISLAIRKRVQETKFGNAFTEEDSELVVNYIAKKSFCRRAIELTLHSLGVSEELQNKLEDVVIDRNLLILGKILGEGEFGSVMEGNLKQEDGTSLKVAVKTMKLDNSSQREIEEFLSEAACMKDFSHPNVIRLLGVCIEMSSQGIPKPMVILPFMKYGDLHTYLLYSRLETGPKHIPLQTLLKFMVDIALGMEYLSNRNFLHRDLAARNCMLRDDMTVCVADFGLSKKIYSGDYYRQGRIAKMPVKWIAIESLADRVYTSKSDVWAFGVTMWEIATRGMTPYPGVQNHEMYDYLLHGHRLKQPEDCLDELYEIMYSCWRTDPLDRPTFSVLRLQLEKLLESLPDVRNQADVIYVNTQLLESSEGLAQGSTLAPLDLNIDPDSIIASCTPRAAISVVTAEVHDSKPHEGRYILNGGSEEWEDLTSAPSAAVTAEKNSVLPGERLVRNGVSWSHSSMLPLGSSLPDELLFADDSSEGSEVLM

Assays:
FLT3 = FLT3 (Homo sapiens, UniProt P36888); experiment: TR-FRET kinase activity assay, FLT3; settings: read-out: Flt3 IC50, ATP at Km, 60 minutes
TYRO3 = TYRO3 (Homo sapiens, UniProt Q06418); experiment: TR-FRET kinase activity assay, TYRO3; settings: read-out: Tyro3 IC50, ATP at Km, 60 minutes
Description: (§1) IC50 values for compound inhibition of AXL, FLT3, MERTK and TYRO3 activity were determined by using a TR-FRET activity assay. A polypeptide substrate with a fluorescent label is phosphorylated on a tyrosine by each enzyme, where the now phosphorylated product is bound by a Europium-labeled antibody specific to that phosphorylation site. The proximity between the antibody and the substrate gives a signal known as TR-FRET. As the enzyme is inhibited by compound, less phosphorylated peptide product is made causing a decrease in overall signal.
(§2) Activity assays were performed in a 384-well, small volume, black microplates in an active enzyme volume of 10 μL and final developed volume of 20 μL. Final assay conditions are 50 mM HEPES pH 7.5, 10 mM MgCl2, 1 mM EGTA, 0.01% Brij 35 and 1 mM DTT all at RT. Enzyme, substrate labeled peptide and compound are mixed, and then the reaction is initiated with the addition of ATP at Km concentration for each enzyme. The reaction is allowed to run 60 minutes and then quenched with a 12.5 mM EDTA (ethylenediamine tetraacetic acid) solution. The plate is then developed with the addition of Europium labeled antibody for a final volume of 20 μL and is then incubated for 30 minutes in darkness. Plates are read in a Pherastar plate reader. Data is analyzed in GraphPad PRISM.
(§3) The results of these assays are shown in Table 1, below, wherein “No.” designates compound number (FIG. 1); “A” represents a value of ≤100 nM; “B” a value of >100 nM and ≤1 μM; “C” a value of >1 μM and ≤10 μM; “D” a value of >10 μM; “ND” is not determined. The ratio of Mer to FLT3 is calculated as follows: FLT3 IC50/Mer IC50. “+” represents a ratio of >2.0 and <10; “++” represents a ratio of between 10 and 100; and “+++” represents a ratio of >100.

AXL = AXL (Homo sapiens, UniProt P30530); experiment: TR-FRET kinase activity assay, AXL; settings: read-out: Axl IC50, ATP at Km, 60 minutes
Description: as §1, §2, §3

MERTK = MERTK (Homo sapiens, UniProt Q12866); experiment: TR-FRET kinase activity assay, MERTK; settings: for pIC50: read-out: Mer IC50, TR-FRET activity assay, ATP at Km, 60 minutes
Description: as §1, §2, §3

[1] = ratio calculated as FLT3 IC50/Mer IC50
[2] = ratio of Mer to FLT3: FLT3 IC50/Mer IC50

SMILES	pIC50 (FLT3)	pIC50 (TYRO3)	pIC50 (AXL)	FLT3/Mer ratio (FLT3 IC50/Mer IC50) (MERTK; [1])	pIC50 (MERTK)	FLT3/Mer ratio (FLT3 IC50/Mer IC50) (MERTK; [2])
COC[C@H](C)Nc1ncc2c(C3=CC[C@@H](C(=O)N4CCOCC4)CC3)cc([C@H]3CC[C@H](O)CC3)n2n1	6.00 to 7.00	> 7.00	> 7.00	+++ (“+++” represents a ratio of >100)	> 7.00	
COC[C@H](C)Nc1ncc2c(-c3cnn(C[C@H]4CC(=O)N(C)C4)c3)cc([C@H]3CC[C@H](O)CC3)n2n1 [Compound 475]	6.00 to 7.00	> 7.00	> 7.00	+++ (“+++” represents a ratio of >100)	> 7.00	
COC[C@H](C)Nc1ncc2c([C@H]3CCCNC3)cc([C@H]3CC[C@H](O)CC3)n2n1	< 5.00	> 7.00	6.00 to 7.00	+++ (“+++” represents a ratio of >100)	> 7.00	
COCC(C)Nc1ncc2c(-c3cnn(C4COC4)c3)cc(C3CCC(O)C3)n2n1 (centres unmarked)	6.00 to 7.00	> 7.00	6.00 to 7.00	++ (“++” represents a ratio of between 10 and 100)	> 7.00	
C[C@@H](Nc1ncc2c(-c3cnn(C4COC4)c3)cc([C@H]3CC[C@H](O)CC3)n2n1)c1ccccn1	6.00 to 7.00	> 7.00	5.00 to 6.00	+ (“+” represents a ratio of >2.0 and <10)	> 7.00	
C[C@@H](Nc1ncc2c(-c3cnn(C4COC4)c3)cc([C@H]3CC[C@H](O)CC3)n2n1)C1COC1	5.00 to 6.00	> 7.00	5.00 to 6.00	++ (“++” represents a ratio of between 10 and 100)	6.00 to 7.00	
COC[C@H](C)Nc1ncc2c(-c3cnn(C4COC4)c3)cc([C@H]3CC[C@H](N(C)C)CC3)n2n1	6.00 to 7.00	> 7.00	6.00 to 7.00	++ (“++” represents a ratio of between 10 and 100)	> 7.00	
C[C@H](Nc1ncc2c(-c3cnn(C4COC4)c3)cc([C@H]3CC[C@H](O)CC3)n2n1)c1ccncc1	5.00 to 6.00	> 7.00	6.00 to 7.00	+++ (“+++” represents a ratio of >100)	> 7.00	
C[C@@H](CC(F)(F)F)Nc1ncc2c(C3=CC[C@H](C(=O)N4CCOCC4)CC3)cc([C@H]3CC[C@H](O)CC3)n2n1	> 7.00	> 7.00	> 7.00	++ (“++” represents a ratio of between 10 and 100)	> 7.00	
COC[C@H](C)Nc1ncc2c(-c3cnn(C(CO)CCl)c3)cc([C@H]3CC[C@@H](N(C)C)CC3)n2n1 (some centres unmarked)	5.00 to 6.00	> 7.00	6.00 to 7.00	+++ (“+++” represents a ratio of >100)	> 7.00	
COC[C@H](C)Nc1ncc2c(C3CC4CCC(C3)N4C(=O)OC(C)(C)C)cc([C@H]3CC[C@H](O)CC3)n2n1 (some centres unmarked)	5.00 to 6.00	> 7.00	> 7.00	+++ (“+++” represents a ratio of >100)	> 7.00	
C[C@H](Nc1ncc2c(-c3cnn(C4COC4)c3)cc([C@H]3CC[C@H](O)CC3)n2n1)c1ccccc1	5.00 to 6.00	> 7.00	> 7.00	+++ (“+++” represents a ratio of >100)	> 7.00	
C[C@H](Nc1ncc2c(-c3cnn(C4COC4)c3)cc([C@H]3CC[C@H](O)CC3)n2n1)C1COC1	> 7.00	> 7.00	6.00 to 7.00	++ (“++” represents a ratio of between 10 and 100)	> 7.00	
COC[C@H](C)Nc1ncc2c(C3=CC[C@H](C(=O)N4CCOCC4)CC3)cc([C@H]3CC[C@H](O)CC3)n2n1	> 7.00	> 7.00	> 7.00	+++ (“+++” represents a ratio of >100)	> 7.00	
COC[C@H](C)Nc1ncc2c(-c3cnn(C4COC4)c3)cc(C3CCS(=N)(=O)CC3)n2n1 (some centres unmarked)	5.00 to 6.00	6.00 to 7.00	5.00 to 6.00	+++ (“+++” represents a ratio of >100)	> 7.00	
C[C@@H](Nc1ncc2c(-c3cnn(C4COC4)c3)cc([C@H]3CC[C@H](O)CC3)n2n1)c1ccccc1	< 5.00	> 7.00	5.00 to 6.00	+++ (“+++” represents a ratio of >100)	> 7.00	
COC[C@H](C)Nc1ncc2c(-c3ccc(CN4CCOCC4)cc3)cc([C@H]3CC[C@H](N)CC3)n2n1	6.00 to 7.00	> 7.00	> 7.00		> 7.00	+++ (“+++” represents a ratio of >100)

Continued, in another order:

pIC50 (FLT3)	pIC50 (TYRO3)	pIC50 (AXL)	FLT3/Mer ratio (FLT3 IC50/Mer IC50) (MERTK; [1])	pIC50 (MERTK)	SMILES	FLT3/Mer ratio (FLT3 IC50/Mer IC50) (MERTK; [2])
< 5.00	5.00 to 6.00	5.00 to 6.00	+++ (“+++” represents a ratio of >100)	> 7.00	COC[C@H](C)Nc1ncc2c([C@@H]3CCCN(C(=O)OC(C)(C)C)C3)cc([C@H]3CC[C@H](O)CC3)n2n1	
5.00 to 6.00	6.00 to 7.00	5.00 to 6.00	+++ (“+++” represents a ratio of >100)	> 7.00	COC[C@H](C)Nc1ncc2c([C@@H]3CCCN(S(C)(=O)=O)C3)cc([C@H]3CC[C@H](O)CC3)n2n1	
5.00 to 6.00	> 7.00	> 7.00	+++ (“+++” represents a ratio of >100)	> 7.00	COC[C@H](C)Nc1ncc2c([C@H]3CCCN(S(C)(=O)=O)C3)cc([C@H]3CC[C@H](O)CC3)n2n1	
5.00 to 6.00	> 7.00	6.00 to 7.00	+++ (“+++” represents a ratio of >100)	> 7.00	COC[C@H](C)Nc1ncc2c(-c3cnn(C4COC4)c3)cc([C@@H]3CC[C@@H](O)C3)n2n1	
6.00 to 7.00	> 7.00	6.00 to 7.00		> 7.00	COCC[C@H](C)Nc1ncc2c(-c3ccc(CN4CCOCC4)cc3)cc([C@H]3CC[C@H](O)CC3)n2n1	++ (“++” represents a ratio of between 10 and 100)
6.00 to 7.00	> 7.00	> 7.00	+++ (“+++” represents a ratio of >100)	> 7.00	COC[C@H](C)Nc1ncc2c(-c3cnn(C4COC4)c3)cc([C@H]3CC[C@@H](F)CC3)n2n1	
6.00 to 7.00	> 7.00	> 7.00	+++ (“+++” represents a ratio of >100)	> 7.00	COC[C@H](C)Nc1ncc2c(-c3cnn(C(CO)CCl)c3)cc([C@H]3CC[C@H](N(C)C)CC3)n2n1 (some centres unmarked)	
5.00 to 6.00	> 7.00	6.00 to 7.00	+++ (“+++” represents a ratio of >100)	> 7.00	COC[C@H](C)Nc1ncc2c(-c3cnn(C(C)(C)C(=O)N4CCOCC4)c3)cc(C3CCCc4[nH]ncc43)n2n1 (some centres unmarked)	
6.00 to 7.00	> 7.00	6.00 to 7.00	+++ (“+++” represents a ratio of >100)	> 7.00	COC[C@H](C)Nc1ncc2c(-c3cnn(C4COC4)c3)cc([C@H]3CC[C@@H](N(C)C)CC3)n2n1	
5.00 to 6.00	> 7.00	6.00 to 7.00	+++ (“+++” represents a ratio of >100)	> 7.00	COC[C@H](C)Nc1ncc2c([C@@H]3CCCNC3)cc([C@H]3CC[C@H](O)CC3)n2n1	
5.00 to 6.00	> 7.00	6.00 to 7.00	+++ (“+++” represents a ratio of >100)	> 7.00	COC[C@H](C)Nc1ncc2c([C@H]3CCCN(C(=O)OC(C)(C)C)C3)cc([C@H]3CC[C@H](O)CC3)n2n1	

pIC50: −log10 of the molar value.
